Data published in patent publication US6022880A, “Substituted pyridylamino indoles” (Hoechst Marion Roussel, Inc., priority 1997, dated 2000).

system: serotonin uptake, rat whole brain synaptosomes; assay: Inhibition of [3H]-Serotonin Uptake in Rat Whole Brain Synaptosomes; format: biochemical, rat (male Wistar); conditions: [3H]-5HT 50 nM, read-out: C: Inhibition of serotonin uptake, IC50
Protocol: (C) Inhibition of [^3 H]-Serotonin Uptake in Rat Whole Brain Synaptosomes
A. Animals: Male CR Wistar Rats (100-125 g).
The final desired concentration of ^3 H-5HT in the assay is 50 nM. The dilution factor is 0.8.
5. For most assays, a 1 mM solution of the test compound is made up in suitable solvent and serially diluted such that the final concentration in the assay ranges from 2×10^-8 to 2×10^-5 M. Seven concentrations are used for each assay.
Male Wistar rats are decapitated and the brain rapidly removed. Whole brain minus cerebella is weighed and homogenized in 9 volumes of ice-cold 0.32 M sucrose using a Potter-Elvejhem homogenizer. Homogenization should be done with 4-5 up and down strokes at medium speeds to minimize synaptosome lysis. The homogenate is centrifuged at 1000 g for 10 min. at 0-4° C. The supernatant (S1) is decanted and is used for uptake experiments.
Tubes are incubated at 37° C. under a 95% O2 /5% CO2 atmosphere for 5 minutes. For each assay, 3 tubes are incubated with 20 μl of vehicle at 0° C. in an ice bath. After incubation all tubes are immediately centrifuged at 4000 g for 10 minutes. The supernatant fluid is aspirated and the pellets dissolved by adding 1 ml of solubilizer (Tritor. X-100+50% EtOH, 1:4 v/v). The tubes are vigorously vortexed, decanted into scintillation vials, and counted in 10 ml of Liquiscint scintillation counting cocktail. Active uptake is the difference between cpm at 37° C. and 0° C. The percent inhibition at each drug concentration is the mean of three determinations. IC50 values are derived from log-probit analysis.

Structure (SMILES)	IC50 [nM]
CN(C)CCC=C1c2ccccc2CCc2ccccc21 [Amitriptyline, reference compound]	830
CN(C)CCCN1c2ccccc2CCc2ccc(Cl)cc21 [Chloripramine, reference compound]	150
CN1CCN(C2=Nc3cc(Cl)ccc3Nc3ccccc32)CC1 [Clozapine, reference compound]	> 20000
